From US20130217664A1, “NOVEL COMPOUNDS USEFUL FOR THE TREATMENT OF DEGENERATIVE AND INFLAMMATORY DISEASES” (priority 2012, published 2013)

Sequences of proteins named here, by UniProt entry; tags and fusion partners are left off. Residues count along the entry.
UniProt P29597, 871-1187 limits assumed: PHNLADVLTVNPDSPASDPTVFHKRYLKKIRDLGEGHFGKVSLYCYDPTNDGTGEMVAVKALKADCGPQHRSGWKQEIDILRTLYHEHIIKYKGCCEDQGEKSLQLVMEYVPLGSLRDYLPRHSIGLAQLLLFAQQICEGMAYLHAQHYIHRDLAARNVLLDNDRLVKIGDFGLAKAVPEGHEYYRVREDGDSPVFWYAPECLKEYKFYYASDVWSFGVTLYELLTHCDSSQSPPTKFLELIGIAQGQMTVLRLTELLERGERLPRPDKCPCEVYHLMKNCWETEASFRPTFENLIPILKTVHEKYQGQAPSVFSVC
UniProt P52333, 781-1124 limits assumed: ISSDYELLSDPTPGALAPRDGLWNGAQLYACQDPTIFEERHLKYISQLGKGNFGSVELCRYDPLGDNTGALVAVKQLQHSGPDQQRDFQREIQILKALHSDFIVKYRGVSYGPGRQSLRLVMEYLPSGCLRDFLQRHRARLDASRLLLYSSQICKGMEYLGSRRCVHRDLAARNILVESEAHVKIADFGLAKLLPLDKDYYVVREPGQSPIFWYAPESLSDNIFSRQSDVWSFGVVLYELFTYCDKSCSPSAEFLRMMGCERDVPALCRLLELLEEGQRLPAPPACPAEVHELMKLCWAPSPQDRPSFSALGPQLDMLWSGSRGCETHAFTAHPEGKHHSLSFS
UniProt P23458, 866-1154 limits assumed: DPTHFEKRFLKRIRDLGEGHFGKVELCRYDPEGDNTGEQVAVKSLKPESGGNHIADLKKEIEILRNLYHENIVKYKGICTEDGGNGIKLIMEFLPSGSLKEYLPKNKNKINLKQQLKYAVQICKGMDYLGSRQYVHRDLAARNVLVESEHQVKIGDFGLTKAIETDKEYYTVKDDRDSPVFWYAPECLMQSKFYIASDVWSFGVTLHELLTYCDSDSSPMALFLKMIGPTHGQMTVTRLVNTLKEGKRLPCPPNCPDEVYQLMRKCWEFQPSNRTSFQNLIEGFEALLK
UniProt O60674, 808-1132 limits assumed: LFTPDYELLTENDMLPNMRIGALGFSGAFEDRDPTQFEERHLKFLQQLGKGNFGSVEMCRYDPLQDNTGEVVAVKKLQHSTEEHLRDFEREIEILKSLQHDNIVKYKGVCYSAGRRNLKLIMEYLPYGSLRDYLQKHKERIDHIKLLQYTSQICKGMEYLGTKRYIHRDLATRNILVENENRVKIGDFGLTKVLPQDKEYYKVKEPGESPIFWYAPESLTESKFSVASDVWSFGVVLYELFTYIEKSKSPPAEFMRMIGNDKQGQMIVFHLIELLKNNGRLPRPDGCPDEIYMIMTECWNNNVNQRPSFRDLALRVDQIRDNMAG

Key:
[1] = test system: pSTAT1(2)-luciferase reporter in HeLa cells triggered with human OSM; assay: JAK-STAT signalling assay; format: cell-based; details: read-out: JAK-STAT IC50, human OSM 33 ng/mL
human TYK2 = human TYK2 (Homo sapiens, UniProt P29597); assay: TYK2 inhibition assay; format: biochemical; details: read-out: TYK2 IC50; recombinant human TYK2 catalytic domain, polyGT substrate
CTLL-2 cell line = assay: CTLL2 viability assay; details: read-out: CTLL2 IC50; IL-2 dependent CTLL2 viability, 24 h, ATP-lite
human JAK3 = human JAK3 (Homo sapiens, UniProt P52333); assay: JAK3 inhibition assay; format: biochemical; details: read-out: JAK3 IC50; recombinant human JAK3 catalytic domain; polyGT substrate
human JAK1 = human JAK1 (Homo sapiens, UniProt P23458); assay: JAK1 inhibition assay (polyGT substrate / Ulight-JAK1 peptide); format: biochemical; details: read-out: JAK1 IC50; recombinant human JAK1 catalytic domain; polyGT or Ulight-JAK1 peptide assay
human JAK2 = human JAK2 (Homo sapiens, UniProt O60674); assay: JAK2 inhibition assay (polyGT substrate / Ulight-JAK1 peptide); format: biochemical; details: read-out: JAK2 IC50; recombinant human JAK2 catalytic domain; polyGT or Ulight-JAK1 peptide assay
BA/F3 cell line = assay: BA/F3 viability assay; details: read-out: BA/F3 IC50; IL-3 dependent BA/F3 cells, 48 h, ATP content (ATP-lite)

SMILES	IC50 [1]	IC50 (human TYK2)	IC50 (CTLL-2 cell line)	IC50 (human JAK3)	IC50 (human JAK1)	IC50 (human JAK2)	IC50 (BA/F3 cell line)
CCNC(=O)N1CCC(c2ccc(N(C)c3cc4c(cn3)ncn4C)c(CC)c2)CC1	1 to 500 nM	–	–	–	–	–	–
CN(c1cc2c(cn1)ncn2C)c1ccc(C2CN(S(C)(=O)=O)C2)cc1OC(F)F	–	101 to 500 nM	> 1000 nM	0.01 to 100 nM	0.01 to 100 nM	0.01 to 100 nM	1000 to 5000 nM
CN(c1ccc2nsnc2c1)c1cc2c(cn1)ncn2C	–	–	–	–	> 1000 nM	–	–
